B1: DQA1*0501/DQB1*0201 (complex)
chain 1: EDIVADHVASYGVNLYQSYGPSGQYTHEFDGDEQFYVDLGRKETVWSLPVLRQFRFDPQFALTNIAVLKHNLNSLIKRSNSTAATNEVPEVTVFSKSPVTLGQPNILICLVDNIFPPVVNITWLSNGHSVTEGVSETSFLSKSDHSFFKISYLTLLPSAEESYDCKVEHWGLDKPLLKHWEPEIPAPMSELTE
chain 2: RDSPEDFVYQFKGMCYFTNGTERVRLVSRSIYNREEIVRFDSDVGEFRAVTLLGLPAAEYWNSQKDILERKRAAVDRVCRHNYQLELRTTLQRRVEPTVTISPSRTEALNHHNLLVCSVTDFYPAQIKVRWFRNDQEETAGVVSTPLIRNGDWTFQILVMLEMTPQRGDVYTCHVEHPSLQSPITVEWRAQSESAQSK
modifications: biotin on the BSP (in vivo, BirA)

Assays:
Conditions in all cases: both partners purified
[1] = biological target: Peptide … (no natural source); experiment: AlphaScreen or HTRF; direct LOCI: α and biotinylated β chains refolded with peptide titration, 48 h at 18°C; streptavidin donor beads and anti-MHC-II antibody acceptor beads; half saturation (EC50) fitted to Y = Bmax*X/(KD+X) and taken as approximate KD; pH as optimised for each MHC (DR2a at pH 6)
[2] = biological target: Oxytocinase271 peptide …; experiment: as above
[3] = biological target: Peptide … (no natural source); experiment: AlphaScreen or HTRF
DQA1*0501/DQB1*0201 = biological target: B1; experiment: AlphaScreen or HTRF

| Binder | Kd [1] [nM] | Kd [2] [nM] | Kd [3] [nM] | Kd (DQA1*0501/DQB1*0201) [nM] |
| --- | --- | --- | --- | --- |
| B1 | 648 | 1090 | 1540 | – |
| YLCQVFADATPTGWGL [Hepatitis B peptide YLCQVFADATPTGWGL] | – | – | – | 1340 |

— publication PMC2690590 (Immunome Research, 2009)
